Patent WO2011083140A1 (dated 2011)

The chains behind the UniProt entries cited, without tags or fusion partners.
UniProt P61073, whole entry: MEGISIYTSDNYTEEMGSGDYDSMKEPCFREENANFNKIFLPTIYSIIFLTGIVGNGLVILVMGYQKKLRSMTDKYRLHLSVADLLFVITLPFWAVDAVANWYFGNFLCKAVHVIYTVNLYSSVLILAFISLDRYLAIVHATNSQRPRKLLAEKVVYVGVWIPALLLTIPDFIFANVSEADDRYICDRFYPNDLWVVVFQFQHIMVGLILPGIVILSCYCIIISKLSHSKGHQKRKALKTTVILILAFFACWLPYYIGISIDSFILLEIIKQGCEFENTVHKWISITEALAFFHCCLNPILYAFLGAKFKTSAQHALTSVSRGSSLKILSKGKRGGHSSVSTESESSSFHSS

Legend:
Assay in all cases: cell-based or functional assay
human CXCR4 (human) [1] = target: human CXCR4 (human) (UniProt P61073)
human CXCR4 (human) [2] = target: human CXCR4 (human) (UniProt P61073); remark: listed apart in the source
human CXCR4 (human) [3] = target: human CXCR4 (human) (UniProt P61073); remark: listed apart in the source

In the case of MDX-1338 (antibody), the Chemotaxis IC50 (M) +HSA (human CXCR4 (human) [1]) is reported as 1.78e-09 M, the Chemotaxis IC50 (M) -HSA (human CXCR4 (human) [1]) is reported as 2.01e-09 M and the Chemotaxis IC50 (M) +HSA (human CXCR4 (human) [2]) is reported as 1.52e-09 M. For the same substance, the Chemotaxis Jurkat cells % inhib. (human CXCR4 (human) [2]) was 94.1%, the Reporter assay: competition IC50 (M) +HSA (human CXCR4 (human) [2]) was 3.73e-09 M and the Reporter assay: competition IC50 (M) -HSA (human CXCR4 (human) [2]) was 5.46e-09 M. For the same substance, the Chemotaxis IC50 (M) +HSA (human CXCR4 (human) [3]) was 1.7e-09 M, the Chemotaxis IC50 (M) -HSA (human CXCR4 (human) [3]) was 1.61e-09 M and the Chemotaxis Jurkat cells % inhib. (human CXCR4 (human) [3]) was 87%. For the same substance, the Chemotaxis Jurkat cells IC50 (M) n=1 (human CXCR4 (human) [3]) was 3e-09 M, the cAMP inhibition assay IC50 (M) n=1 (human CXCR4 (human) [3]) was 7.5e-07 M and the cAMP inhibition assay IC50 (M) n=2 (human CXCR4 (human) [3]) was 7.8e-07 M.

Where two headings read alike, the source gives them in different places.
